Protein sequences, listed by entry. Tags and fused reporters are not part of them.
UniProt P49146, whole entry: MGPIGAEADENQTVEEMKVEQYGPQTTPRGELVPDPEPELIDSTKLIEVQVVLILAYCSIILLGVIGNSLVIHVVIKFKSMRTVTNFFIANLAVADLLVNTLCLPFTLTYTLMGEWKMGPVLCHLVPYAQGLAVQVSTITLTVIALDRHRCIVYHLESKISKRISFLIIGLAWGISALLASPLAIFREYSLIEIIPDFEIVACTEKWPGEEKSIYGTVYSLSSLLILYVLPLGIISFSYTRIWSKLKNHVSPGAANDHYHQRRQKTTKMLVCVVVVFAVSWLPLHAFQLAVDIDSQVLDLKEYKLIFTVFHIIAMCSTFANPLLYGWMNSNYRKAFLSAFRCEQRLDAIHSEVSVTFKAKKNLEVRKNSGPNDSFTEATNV

In US20020103123A1:

Molecular target: human Y2 receptor (human) (UniProt P49146)
Experiment: 125I-PYY displacement, COS-7 membranes

rat/human NPY, P01303 (peptide; carboxy terminal amide; other documents disagree on this pair)
Ki: 0.74 nM
